Assay results reported in publication PMC7179958, “Prediction of Clinical Transporter‐Mediated Drug–Drug Interactions via Comeasurement of Pitavastatin and Eltrombopag in Human Hepatocyte Models” (CPT: Pharmacometrics & Systems Pharmacology, 2020).

Tested on: human hepatocytes
Assay: Uptake of pitavastatin and eltrombopag in cryopreserved human hepatocytes (oil spin method), comeasurement, micro‐rate constant mechanistic model
Assay type: in vitro ADME
Protocol: Human hepatocytes were obtained from BioIVT (Brussels, Belgium; lot number: LYB; 10 donor LiverPool (8 Caucasians, 1 African American, and 1 Hispanic) and thawed according to supplier guidelines in Leibovitz L15 medium. Hepatocytes were kept on ice prior to use and were used within 3 hours of defrosting.
Hepatocytes (viability 84–87%) were preincubated in Leibovitz L15 medium at 1.5 × 10^6 cells for 15 minutes at 37 °C with either 0.1% DMSO or 45 nmol/mL eltrombopag. Incubations were started by the addition of pitavastatin (0.3–100 nmol/mL, 1 × 10^6 cells, 0.35% DMSO, 30 nmol/mL eltrombopag final), and 100 µL samples taken at 0.25–30 minutes. Cells were separated using an oil spin method similar to the literature. ^11 , ^17 After separation, the tubes were frozen on dry ice and the bottom layer was cut off. Pitavastatin and eltrombopag were extracted in a stop solution prior to ultra‐performance liquid chromatography–high‐resolution mass spectrometry analysis (see the Supplemental Material for full experimental and sample extraction methods).
The bottom layer concentrations of pitavastatin and eltrombopag were converted to a cellular concentration using a cellular volume (V cell) of 3 µL/1 × 10^6 human hepatocytes: ^18 (1) cellnmol/mL=Bottom layer×15.3μL/Vcell/100 where V cell /1 × 10^5 cells was 0.3 µL, and the volume of the bottom layer of cesium chloride was 15 µL. A dilution factor of 100 was used to scale from pmol/mL/1 × 10^5 cells to nmol/mL/1 × 10^6 cells.
The final chosen mechanistic model (model 1 with the comeasurement of pitavastatin and eltrombopag; Table 1 ) was based on the outcome of the structural identifiability analysis and goodness‐of‐fit statistics (Bayesian information criterion, and the weighted Bayesian information criterion, ^21 and the sum of the relative mean square root error (percentage RMSRE); see Supplemental Material ). Model 1 was described using a set of ODEs representing the following: the amount of pitavastatin (X = substrate (S) or pitavastatin (P)) and eltrombopag (X = inhibitor (I) or eltrombopag (E)) in the medium (X 1), the amount bound to transporter (X 2), and the intracellular amount (X 3). Passive rate constants for movement into and out of the cell (k f.X and k bX, respectively) as well as uptake transporter‐mediated rate constants for association to the transporter (k aX) and dissociation (k dX) and translocation (k tX) from the transporter into the medium and cell, respectively. Metabolism of pitavastatin in the cell was through an elimination rate constant (k e). The sets of ODEs for all the models (models 1–4; Table 1 ) tested for structural identifiability and used for parameter estimation are included in the Supplemental Material .
Parameter estimation was conducted within Monolix 2018 R2 (Lixoft, Antony, France) for each concentration and experiment as an individual data set, where to ensure positivity, a log‐normal distribution was assumed for each parameter, with a proportional residual error model for the observations. Because of the large number of parameters to be estimated in the combined pitavastatin and eltrombopag mechanistic model, the initial estimates for pitavastatin and eltrombopag each were obtained for the micro‐rate constant models (no macro‐rate constant estimates could be obtained for eltrombopag alone for transporter‐mediated uptake).
Hepatocyte Incubations. 0.4 mL of hepatocytes was diluted 1:1 with Leibovitz either containing DMSO blank (0.1 % for pitavastatin or 0.25 % for eltrombopag alone) or eltrombopag at 90 nmol/mL and pre-incubated at 1.5x10^6 cells/mL for 15 min at 37 °C in 7 mL glass scintillation vials (PerkinElmer, Vasby, Sweden) in a shaking water bath (Grant Instruments, Cambridge, UK). Pitavastatin was dissolved and serially diluted in DMSO to give 0.12, 0.4, 1.2, 4, 12 and 40 µmol/mL, and then diluted 400-fold into 37 °C Leibovitz L15 medium. […]

**Q.** How did the “DV (pitavastatin uptake into hepatocytes)” value (from here on “DV”) (ID 1, AMT 0.3, TIME 15.33, DVID 1) turn out when `O=C(O)C[C@H](O)C[C@H](O)/C=C/c1c(C2CC2)nc2ccccc2c1-c1ccc(F)cc1` [pitavastatin, pitavastatin calcium] was run?
**A.** 0.44

**Q.** And the “DV” value (ID 1, AMT 0.3, TIME 15.5, DVID 1)?
**A.** 0.81

**Q.** And the “DV” value (ID 1, AMT 0.3, TIME 16, DVID 1)?
**A.** 1.13

**Q.** What about the “DV” value (ID 1, AMT 0.3, TIME 17, DVID 1) of the same compound?
**A.** 2.05

**Q.** What about the “DV” value (ID 1, AMT 0.3, TIME 20, DVID 1) of the same compound?
**A.** 3.37

**Q.** And the “DV” value (ID 1, AMT 0.3, TIME 25, DVID 1)?
**A.** 3.44

**Q.** And the “DV” value (ID 1, AMT 0.3, TIME 45, DVID 1)?
**A.** 3.08

**Q.** And the “DV” value (ID 2, AMT 0.3, TIME 15.25, DVID 1)?
**A.** 1

**Q.** What about the “DV” value (ID 2, AMT 0.3, TIME 15.5, DVID 1) of the same compound?
**A.** 1.65

**Q.** What about the “DV” value (ID 2, AMT 0.3, TIME 16, DVID 1) of the same compound?
**A.** 2.77

**Q.** And the “DV” value (ID 2, AMT 0.3, TIME 17, DVID 1)?
**A.** 3.74

**Q.** And the “DV” value (ID 2, AMT 0.3, TIME 20, DVID 1)?
**A.** 6.25

**Q.** And the “DV” value (ID 2, AMT 0.3, TIME 25, DVID 1)?
**A.** 6.32

**Q.** And the “DV” value (ID 2, AMT 0.3, TIME 45, DVID 1)?
**A.** 5.75

**Q.** What about the “DV” value (ID 3, AMT 0.3, TIME 15.25, DVID 1) of the same compound?
**A.** 0.64

**Q.** And the “DV” value (ID 3, AMT 0.3, TIME 15.5, DVID 1)?
**A.** 1.12

**Q.** And the “DV” value (ID 3, AMT 0.3, TIME 16, DVID 1)?
**A.** 2.02

**Q.** What about the “DV” value (ID 3, AMT 0.3, TIME 17, DVID 1) of the same compound?
**A.** 2.84

**Q.** And the “DV” value (ID 3, AMT 0.3, TIME 20, DVID 1)?
**A.** 3.66

**Q.** What about the “DV” value (ID 3, AMT 0.3, TIME 25, DVID 1) of the same compound?
**A.** 3.52

**Q.** What about the “DV” value (ID 3, AMT 0.3, TIME 45, DVID 1) of the same compound?
**A.** 2.87

**Q.** What about the “DV” value (ID 4, AMT 1, TIME 15.25, DVID 1) of the same compound?
**A.** 1.64

**Q.** And the “DV” value (ID 4, AMT 1, TIME 15.5, DVID 1)?
**A.** 2.04

**Q.** What about the “DV” value (ID 4, AMT 1, TIME 16, DVID 1) of the same compound?
**A.** 3

**Q.** What about the “DV” value (ID 4, AMT 1, TIME 17, DVID 1) of the same compound?
**A.** 5.53

**Q.** What about the “DV” value (ID 4, AMT 1, TIME 20, DVID 1) of the same compound?
**A.** 8.32

**Q.** And the “DV” value (ID 4, AMT 1, TIME 25, DVID 1)?
**A.** 5.65

**Q.** And the “DV” value (ID 4, AMT 1, TIME 45, DVID 1)?
**A.** 9.06

**Q.** And the “DV” value (ID 5, AMT 1, TIME 15.25, DVID 1)?
**A.** 3.21

**Q.** And the “DV” value (ID 5, AMT 1, TIME 15.5, DVID 1)?
**A.** 4.54

**Q.** And the “DV” value (ID 5, AMT 1, TIME 16, DVID 1)?
**A.** 7.36

**Q.** And the “DV” value (ID 5, AMT 1, TIME 17, DVID 1)?
**A.** 11.12

**Q.** What about the “DV” value (ID 5, AMT 1, TIME 20, DVID 1) of the same compound?
**A.** 17.63

**Q.** What about the “DV” value (ID 5, AMT 1, TIME 25, DVID 1) of the same compound?
**A.** 18.93

**Q.** What about the “DV” value (ID 5, AMT 1, TIME 45, DVID 1) of the same compound?
**A.** 14.63

**Q.** What about the “DV” value (ID 6, AMT 1, TIME 15.25, DVID 1) of the same compound?
**A.** 2.1

**Q.** And the “DV” value (ID 6, AMT 1, TIME 15.5, DVID 1)?
**A.** 2.85

**Q.** And the “DV” value (ID 6, AMT 1, TIME 16, DVID 1)?
**A.** 5.61

**Q.** And the “DV” value (ID 6, AMT 1, TIME 17, DVID 1)?
**A.** 8.39

**Q.** And the “DV” value (ID 6, AMT 1, TIME 20, DVID 1)?
**A.** 13.16

**Q.** And the “DV” value (ID 6, AMT 1, TIME 25, DVID 1)?
**A.** 10.79

**Q.** What about the “DV” value (ID 6, AMT 1, TIME 45, DVID 1) of the same compound?
**A.** 8.88

**Q.** What about the “DV” value (ID 7, AMT 3, TIME 15.25, DVID 1) of the same compound?
**A.** 3.44

**Q.** And the “DV” value (ID 7, AMT 3, TIME 15.5, DVID 1)?
**A.** 5.29

**Q.** What about the “DV” value (ID 7, AMT 3, TIME 16, DVID 1) of the same compound?
**A.** 6.84

**Q.** And the “DV” value (ID 7, AMT 3, TIME 17, DVID 1)?
**A.** 12.79

**Q.** And the “DV” value (ID 7, AMT 3, TIME 20, DVID 1)?
**A.** 20.91

**Q.** What about the “DV” value (ID 7, AMT 3, TIME 25, DVID 1) of the same compound?
**A.** 23.83

**Q.** What about the “DV” value (ID 7, AMT 3, TIME 45, DVID 1) of the same compound?
**A.** 16.69

**Q.** And the “DV” value (ID 8, AMT 3, TIME 15.25, DVID 1)?
**A.** 7.28

**Q.** What about the “DV” value (ID 8, AMT 3, TIME 15.5, DVID 1) of the same compound?
**A.** 11.1

**Q.** And the “DV” value (ID 8, AMT 3, TIME 16, DVID 1)?
**A.** 18.96

**Q.** And the “DV” value (ID 8, AMT 3, TIME 17, DVID 1)?
**A.** 26.06

**Q.** And the “DV” value (ID 8, AMT 3, TIME 20, DVID 1)?
**A.** 34.93

**Q.** What about the “DV” value (ID 8, AMT 3, TIME 25, DVID 1) of the same compound?
**A.** 41.51

**Q.** What about the “DV” value (ID 8, AMT 3, TIME 45, DVID 1) of the same compound?
**A.** 37.21

**Q.** And the “DV” value (ID 9, AMT 3, TIME 15.25, DVID 1)?
**A.** 4.57

**Q.** And the “DV” value (ID 9, AMT 3, TIME 15.5, DVID 1)?
**A.** 6.22

**Q.** What about the “DV” value (ID 9, AMT 3, TIME 16, DVID 1) of the same compound?
**A.** 10.98

**Q.** What about the “DV” value (ID 9, AMT 3, TIME 17, DVID 1) of the same compound?
**A.** 14.51

**Q.** And the “DV” value (ID 9, AMT 3, TIME 20, DVID 1)?
**A.** 23.79

**Q.** What about the “DV” value (ID 9, AMT 3, TIME 25, DVID 1) of the same compound?
**A.** 27.45

**Q.** And the “DV” value (ID 9, AMT 3, TIME 45, DVID 1)?
**A.** 24.05

**Q.** What about the “DV” value (ID 10, AMT 10, TIME 15.25, DVID 1) of the same compound?
**A.** 10.28

**Q.** What about the “DV” value (ID 10, AMT 10, TIME 15.5, DVID 1) of the same compound?
**A.** 13.48

**Q.** What about the “DV” value (ID 10, AMT 10, TIME 16, DVID 1) of the same compound?
**A.** 21.07

**Q.** And the “DV” value (ID 10, AMT 10, TIME 17, DVID 1)?
**A.** 40.16

**Q.** And the “DV” value (ID 10, AMT 10, TIME 20, DVID 1)?
**A.** 41.64

**Q.** What about the “DV” value (ID 10, AMT 10, TIME 25, DVID 1) of the same compound?
**A.** 48.12

**Q.** What about the “DV” value (ID 10, AMT 10, TIME 45, DVID 1) of the same compound?
**A.** 51.06

**Q.** And the “DV” value (ID 11, AMT 10, TIME 15.25, DVID 1)?
**A.** 23.81

**Q.** And the “DV” value (ID 11, AMT 10, TIME 15.5, DVID 1)?
**A.** 31.84

**Q.** And the “DV” value (ID 11, AMT 10, TIME 16, DVID 1)?
**A.** 50.69

**Q.** And the “DV” value (ID 11, AMT 10, TIME 17, DVID 1)?
**A.** 69.05

**Q.** And the “DV” value (ID 11, AMT 10, TIME 20, DVID 1)?
**A.** 86.82
